ChEMBL document CHEMBL1133080, “Substituted 5,7-diphenyl-pyrrolo[2,3d]pyrimidines: potent inhibitors of the tyrosine kinase c-Src” (Bioorg Med Chem Lett, 2000)

Chains of the proteins cited; added tags and fusions are not shown.
UniProt P00533, whole entry: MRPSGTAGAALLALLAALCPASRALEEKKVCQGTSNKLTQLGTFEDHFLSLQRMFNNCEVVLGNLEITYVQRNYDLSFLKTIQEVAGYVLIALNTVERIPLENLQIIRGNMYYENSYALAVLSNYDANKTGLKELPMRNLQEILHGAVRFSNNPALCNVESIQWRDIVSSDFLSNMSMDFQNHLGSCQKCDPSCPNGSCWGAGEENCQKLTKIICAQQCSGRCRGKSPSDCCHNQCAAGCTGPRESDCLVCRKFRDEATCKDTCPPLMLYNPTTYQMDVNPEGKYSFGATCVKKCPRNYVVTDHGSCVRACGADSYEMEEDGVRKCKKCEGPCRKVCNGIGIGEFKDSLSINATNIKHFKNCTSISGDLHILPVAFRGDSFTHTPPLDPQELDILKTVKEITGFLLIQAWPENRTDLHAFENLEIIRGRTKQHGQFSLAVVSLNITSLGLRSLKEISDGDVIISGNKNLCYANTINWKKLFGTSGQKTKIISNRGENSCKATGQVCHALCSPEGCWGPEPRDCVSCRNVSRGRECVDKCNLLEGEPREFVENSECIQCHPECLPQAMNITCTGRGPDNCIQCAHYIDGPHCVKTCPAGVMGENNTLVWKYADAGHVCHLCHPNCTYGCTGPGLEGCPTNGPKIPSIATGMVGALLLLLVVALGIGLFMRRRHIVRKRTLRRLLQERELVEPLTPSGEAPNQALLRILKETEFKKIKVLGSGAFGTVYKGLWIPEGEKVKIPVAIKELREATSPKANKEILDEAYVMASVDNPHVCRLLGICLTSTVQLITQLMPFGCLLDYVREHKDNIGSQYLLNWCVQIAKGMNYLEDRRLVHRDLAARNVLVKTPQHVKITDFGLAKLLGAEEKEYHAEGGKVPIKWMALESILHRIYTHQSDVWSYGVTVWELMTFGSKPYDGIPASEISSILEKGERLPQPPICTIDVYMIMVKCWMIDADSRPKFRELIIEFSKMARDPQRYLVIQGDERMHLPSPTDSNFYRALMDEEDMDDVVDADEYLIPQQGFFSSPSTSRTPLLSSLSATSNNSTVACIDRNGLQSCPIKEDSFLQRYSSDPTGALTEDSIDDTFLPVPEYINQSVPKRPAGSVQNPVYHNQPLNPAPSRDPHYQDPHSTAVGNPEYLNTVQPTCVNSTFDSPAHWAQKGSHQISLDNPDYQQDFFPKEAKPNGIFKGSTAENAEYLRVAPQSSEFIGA
UniProt P35968, whole entry: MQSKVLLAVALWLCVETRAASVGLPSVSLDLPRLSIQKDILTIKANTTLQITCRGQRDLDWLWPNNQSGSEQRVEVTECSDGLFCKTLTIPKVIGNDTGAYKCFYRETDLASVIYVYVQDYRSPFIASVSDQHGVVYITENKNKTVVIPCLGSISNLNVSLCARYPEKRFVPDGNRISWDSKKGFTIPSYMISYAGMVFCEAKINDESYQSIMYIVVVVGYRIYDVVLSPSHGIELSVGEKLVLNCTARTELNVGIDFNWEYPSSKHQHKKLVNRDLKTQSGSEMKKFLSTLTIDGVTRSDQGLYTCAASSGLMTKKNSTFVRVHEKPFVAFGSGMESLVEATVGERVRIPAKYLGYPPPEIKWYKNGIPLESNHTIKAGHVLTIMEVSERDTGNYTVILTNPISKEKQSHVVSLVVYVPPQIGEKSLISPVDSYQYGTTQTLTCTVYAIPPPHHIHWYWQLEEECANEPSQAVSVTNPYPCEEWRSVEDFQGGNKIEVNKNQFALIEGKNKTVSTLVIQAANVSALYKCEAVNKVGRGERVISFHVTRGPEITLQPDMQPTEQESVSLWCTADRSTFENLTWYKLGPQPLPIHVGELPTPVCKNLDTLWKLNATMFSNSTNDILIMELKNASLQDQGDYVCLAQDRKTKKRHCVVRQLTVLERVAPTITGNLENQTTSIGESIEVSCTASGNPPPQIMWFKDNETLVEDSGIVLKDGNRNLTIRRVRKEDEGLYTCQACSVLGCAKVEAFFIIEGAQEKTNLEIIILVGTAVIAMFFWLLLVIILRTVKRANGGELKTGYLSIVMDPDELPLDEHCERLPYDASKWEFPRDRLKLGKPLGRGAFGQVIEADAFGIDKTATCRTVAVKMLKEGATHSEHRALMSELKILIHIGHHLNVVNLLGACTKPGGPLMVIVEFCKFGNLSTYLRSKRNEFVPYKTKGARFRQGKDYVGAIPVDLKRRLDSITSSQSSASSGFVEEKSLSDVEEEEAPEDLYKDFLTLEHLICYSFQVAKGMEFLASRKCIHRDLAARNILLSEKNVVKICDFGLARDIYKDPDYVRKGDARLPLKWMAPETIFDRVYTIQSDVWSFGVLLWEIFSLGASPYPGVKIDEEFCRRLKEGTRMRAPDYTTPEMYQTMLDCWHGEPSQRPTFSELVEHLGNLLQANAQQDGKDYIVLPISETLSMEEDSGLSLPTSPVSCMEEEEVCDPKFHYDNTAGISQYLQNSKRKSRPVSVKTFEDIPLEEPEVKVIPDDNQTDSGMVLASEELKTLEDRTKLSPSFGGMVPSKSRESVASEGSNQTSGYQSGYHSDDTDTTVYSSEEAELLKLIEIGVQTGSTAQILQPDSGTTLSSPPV

Experiments:
[1] = target: T1, Epidermal growth factor receptor (Homo sapiens, UniProt P00533); test: Tested in vitro for inhibition of EGF-receptor tyrosine kinase
[2] = target: T1, Epidermal growth factor receptor; test: Tested for inhibition of EGF-receptor tyrosine kinase in intact cells
[3] = target: Vascular endothelial growth factor receptor 2 (Homo sapiens, UniProt P35968); test: Tested in vitro for inhibition of KDR-receptor tyrosine kinase

## Nc1ncnc2c1c(-c1ccccc1)cn2-c1ccccc1
[1]
  IC50: 500 nM
[2]
  IC50: 3 µM
[3]
  IC50: 500 nM
